Data from PubChem BioAssay AID612 (The Scripps Research Institute Molecular Screening Center, 2007).
The list shows a part of the results, in another mix than the full data. Calls of active or inactive are those of the source.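 The calls were made as follows: active = inhibition above the mean of all tested compounds plus 3 SD (cut at about 43% in these data); inactive = the rest.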

Amino acid sequences for entries named in this document (tags omitted).
UniProt P08908, whole entry: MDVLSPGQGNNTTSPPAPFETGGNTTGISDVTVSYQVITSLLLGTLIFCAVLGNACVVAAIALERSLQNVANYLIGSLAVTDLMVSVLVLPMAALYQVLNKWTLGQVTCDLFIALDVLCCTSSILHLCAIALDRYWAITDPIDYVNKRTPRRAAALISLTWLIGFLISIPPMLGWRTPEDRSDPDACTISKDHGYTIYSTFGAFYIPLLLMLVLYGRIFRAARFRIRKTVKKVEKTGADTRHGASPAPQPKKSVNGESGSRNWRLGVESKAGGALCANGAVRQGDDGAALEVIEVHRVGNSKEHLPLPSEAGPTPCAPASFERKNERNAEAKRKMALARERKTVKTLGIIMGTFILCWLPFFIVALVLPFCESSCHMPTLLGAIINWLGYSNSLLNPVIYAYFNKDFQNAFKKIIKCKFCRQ

The compounds below were run against 5-hydroxytryptamine receptor 1A (Homo sapiens) (UniProt P08908) (assay: blockade of serotonin HTR1A receptor – cell-based, CHO, Ga15 NFAT-bla reporter, primary screen (AID 612;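 also: receptor stimulated by 5-CT agonist at 100 nM near EC80; beta-lactamase reporter measured by ratiometric fluorescence of a cleavable substrate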)). Details: CHO 5-HT1a Ga15 NFAT-bla reporter, antagonist mode; at 10 µM; stronger effect = higher value.

Row | Structure (SMILES) | inhibition
1 | CP(=S)(Nn1cnnc1)Oc1ccccc1 (configuration not stated) | inactive: 3%
2 | CP(=O)(NC(=O)Nc1ccccc1)Oc1ccccc1 (configuration not stated) | inactive: 5.4%
3 | CCOP(C)(=S)SCC(=O)NC(C)C(=O)O (configuration not stated) | inactive: 10.3%
4 | Cc1ccc(NP(C)(=O)Oc2ccccc2)c(C)c1 (configuration not stated) | inactive: 4.1%
5 | COc1ccccc1OP(C)(=O)Nc1ccc(C)cc1 (configuration not stated) | inactive: 5.1%
6 | Cc1ccc(C)c(NP(C)(=O)Oc2ccccc2)c1 (configuration not stated) | inactive: -1.8%
7 | Cc1nc2ccc3ccccc3c2s1.O=[N+]([O-])c1cc([N+](=O)[O-])c(O)c([N+](=O)[O-])c1 | inactive: -10%
8 | CN(C)CCOC(=O)C(O)(c1ccccc1)C1CCCCC1 (configuration not stated) | inactive: 9.3%
9 | CCOP(C)(=S)SCC(=O)NC(C)(CC)C(=O)O (configuration not stated) | inactive: 4.1%
10 | Cc1ccccc1NP(C)(=O)Nc1ccccc1C | inactive: 2.7%
11 | CP(=O)(Nc1ccc2c(c1)OCCO2)Oc1ccccc1 (configuration not stated) | inactive: 4.3%
12 | CP(=O)(Nc1ccccc1F)Oc1ccccc1 (configuration not stated) | inactive: 0.9%
13 | COc1ccccc1OP(C)(=O)Nc1ccc(C)c(C)c1 (configuration not stated) | inactive: -7.1%
14 | Cc1nc2ccc3ccccc3c2o1.O=[N+]([O-])c1cc([N+](=O)[O-])c(O)c([N+](=O)[O-])c1 | inactive: 10.1%
15 | CP(=O)(Nc1ccccn1)Oc1ccccc1 (configuration not stated) | inactive: 6.1%
16 | COc1ccccc1OP(C)(=O)Nc1c(C)n(C)n(-c2ccccc2)c1=O (configuration not stated) | inactive: -13.9%
17 | CP(=O)(Oc1ccccc1)N1CCOC1=O (configuration not stated) | inactive: 7.1%
